Laboratory results: publication PMC6135396, “Repurposing antimalarial aminoquinolines and related compounds for treatment of retinal neovascularization” (PLoS ONE, 2018)

How the values were obtained:
HRECs [1] = settings: VEGF 100 ng/mL, Ap13 10 nM
Method: Migration was determined by the QCM™ chemotaxis 5 μm 96-well cell migration assay (Chemicon International, Inc.) as per the manufacture’s protocol. […] After 16 h, cells that migrated to the basal side of the chamber insert membrane were detached, lysed and detected using CyQuant GR™ dye. Migration is expressed as percent increase in migrated cells compared to untreated cells.

HRECs [2] = settings: VEGF 100 ng/mL, Ap13 10 nM; remark: listed apart in the source
Method: The proliferation of HRECs was monitored by the crystal violet assay as described in our previous publication. […] After washing three times with PBS, the plates were air-dried and the remaining stain was dissolved in, 10% acetic acid and absorbance measured with a microplate reader at 540 nm.

CSCC[C@H](NC(=O)[C@@H]1CCCN1C(=O)CNC(=O)[C@H](CCCCN)NC(=O)[C@H](Cc1c[nH]cn1)NC(=O)[C@H](CO)NC(=O)[C@H](CC(C)C)NC(=O)[C@H](CCCNC(=N)N)NC(=O)[C@@H]1CCCN1C(=O)[C@H](CCCNC(=N)N)NC(=O)[C@@H](N)CCC(N)=O)C(=O)N1CCC[C@H]1C(=O)N[C@@H](Cc1ccccc1)C(=O)O [Ap13, apelin-13]
Effect on HREC migration (HRECs [1]): no significant effect | Effect on HREC proliferation (HRECs [2]): no significant effect
